Literature values as cited in US8329663B2, “Compositions and methods for the treatment of chronic infections” (priority 2008, dated 2012).

Conditions: second pKa value listed (polyprotic); in water

CCOC(=O)[C@H](CCc1ccccc1)N[C@@H](C)C(=O)N1CCC[C@H]1C(=O)O [Enalapril]
pKa (in H2O): 3.0, 5.4
